Results taken from patent publication US11878972B2, “Treatment of neurological disorders” (TORQUR AG, priority 2016, dated 2024).

Biological target: T1, N-terminally GST-tagged mTOR (truncated version: amino acids 1360-2549) (Homo sapiens, UniProt P42345)
T1 construct: truncated version: amino acids 1360-2549; purchased Life Technologies PR8683B
Assay: In vitro mTOR binding assay (LanthaScreen TR-FRET)

IC50: 8 nM
Structure (SMILES): Nc1cc(C(F)F)c(-c2nc(N3CCOCC3)nc(N3CCOCC3)n2)cn1 [Compound 1, 4-(difluoromethyl)-5-(4,6-dimorpholino-1,3,5-triazin-2-yl)pyridin-2-amine]
